Literature values, collected in patent US20070105793A1, “Compositions and methods using nicotinic acid for treatment of hypercholesterolemia, hyperlipidemia nd cardiovascular disease” (priority 2005, published 2007).

Test system: β-thromboglobulin
Details: in vivo

## CC(C)(CO)[C@@H](O)C(=O)NCCC(=O)NCCSSCCNC(=O)CCNC(=O)[C@H](O)C(C)(C)CO [Pantethine, pantethine]
  effect on β-thromboglobulin: lowers β-thromboglobulin
